{"source": "patent US11116740B2", "about": "“Methods for use in support of planned supplement and food ingredient products for diagnosis and treatment of metabolic syndrome” (priority 2015, dated 2021)", "conditions": "bottlenose dolphin (Tursiops truncatus), in vivo, 12 weeks", "description": "This study examined global metabolic profiles in six dolphins (“Group A dolphins”). The dolphins lived in netted enclosures within San Diego Bay. The dolphins started on a 100% capelin diet. Group A dolphins were fed one-third of their daily diet in the morning after their routine overnight fast and 2h postprandial, in-water, and trained blood samples were drawn (typically near 10:00 a.m.). An additional four dolphins (“Group C dolphins”) were fed the capelin diet.\nTwo hour post-prandial samples were collected from the dolphins at baseline (week 0) and at four time points following the switch to the modified diet: 6, 12, 18, and 24 weeks. Routine monthly samples collected from four reference dolphins that were housed in the same environment as the Group A dolphins were assessed for glucose, triglycerides, ferritin, and percent serum fatty acids. […]\nUltrahigh Performance Liquid Chromatography-Tandem Mass Spectroscopy (UPLC-MS/[…]): Each of four methods utilized a Waters ACQUITY ultra-performance liquid chromatography (UPLC) and a Thermo Scientific Q-Exactive high resolution/accurate mass spectrometer interfaced with a heated electrospray ionization (HESI-II) source and Orbitrap mass analyzer operated at 35,000 mass resolution. […] A first aliquot was analyzed using acidic positive ion conditions, chromatographically optimized for more hydrophilic compounds. […]"}
{"molecule": "CCCCCCCCC(=O)O", "note": "[perlargonate (9:0), nonanoic acid]", "values": [{"measurement": "serum concentration 12 wk / 0 wk", "result": 1.14}]}
